This note sets out measurements from patent US3932374A, “Bleomycinic acid and process for preparing thereof” (Zaidan Hojin Biseibutsu Kagaku Kenkyu Kai, priority 1971, dated 1976).

This data set relates to ICR-JCL male mice. Conditions: 10 mg./kg. i.v., 10 days; for Total, mice with degree of fibrosis ++ / Total, mice with degree of fibrosis - / Total, mice with degree of fibrosis ± / Total, mice with degree of fibrosis ± (third Total column): 10 mice.

Where two headings read alike, the source gives them in different places.

benzylamino-bleomycin: where the note is “Lung L”, the “Total, mice with degree of fibrosis ++” value is 0; the “Total, mice with degree of fibrosis -” value stood at 8; the “Total, mice with degree of fibrosis ±” value worked out at 1; the “Total, mice with degree of fibrosis ± (third Total column)” value is reported as 1. Besides, where the note is “Lung R”, the “Total, mice with degree of fibrosis ++” value was found to be 0; the “Total, mice with degree of fibrosis -” value was 7; the “Total, mice with degree of fibrosis ±” value stood at 3; the “Total, mice with degree of fibrosis ± (third Total column)” value was determined as 0. Besides, the “toxicity compared with bleomycin B2” value (lung fibrosis in mice) is listed as “lower”.
